Experimental data from patent publication US20030032003A1, “IN VIVO SELECTION” (priority 2000, published 2003).

Test system: Hprt +/+ wildtype 129/J mice
Experiment: Acute toxicity of 6TG, approximate lethal dose
[1] = Hprt +/+, 25 mg/kg single i.p., 14 days
[2] = Hprt +/+, 50 mg/kg single i.p., 14 days
[3] = Hprt +/+, 100 mg/kg single i.p., 14 days
[4] = Hprt +/+, 150 mg/kg single i.p., 14 days
[5] = Hprt +/+, 225 mg/kg single i.p., 14 days
[6] = Hprt +/+, 338 mg/kg single i.p., 14 days
[7] = Hprt +/+, 508 mg/kg single i.p., 14 days
[8] = Hprt +/+, 720 mg/kg single i.p., 14 days

## Nc1nc(S)c2[nH]cnc2n1 [6TG, 2-amino-6-merkaptopurine]
[1]
  body weight, percentage of the body weight before the experiment: 93%
  survival: surv (surv, animals survived the 14 days period)
[2]
  body weight, percentage of the body weight before the experiment: 65%
  survival: 13 days
[3]
  body weight, percentage of the body weight before the experiment: 69%
  survival: 10.5 days
[4]
  body weight, percentage of the body weight before the experiment: 76%
  survival: 8.5 days
[5]
  body weight, percentage of the body weight before the experiment: 80%
  survival: 7 days
[6]
  body weight, percentage of the body weight before the experiment: 88%
  survival: 4 days
[7]
  body weight, percentage of the body weight before the experiment: 85%
  survival: 4 days
[8]
  body weight, percentage of the body weight before the experiment: 80%
  survival: 4 days
Mice treated with 10 times the approximate lethal dose (Table 6)
  survival: 4 days
Wild type mice, 25 mg/kg sublethal dose
  decrease in body weight: 7%
Wildtype mice, single i.p.
  approximate lethal dose: 50 mg/kg
